Kd data for one substance are collected here from PMC7946884.

Like-named read-outs stand apart in the source and are kept apart here.

In experiment [1] the target is chimeric protein kinase PKA-C^DNAJB1 (J-domain of DNAJB1 fused to the catalytic α subunit of PKA) (human (fusion gene found in tumours of FL-HCC patients)) (UniProt P25685).
Experiment [2] has the same target. The source holds these as a separate data set.

One may read the Kd as the equilibrium constant for the complex coming apart. The low end stands for tighter binding, the high end for weaker binding. “PKI_(5–24), peptide of the endogenous protein kinase inhibitor PKI”: the Kd in experiment [1] was 9 µM; in experiment [2] it was 1.1 µM.
